# Data taken from patent publication US20260207614A1, “IRAK4 DEGRADERS AND USES THEREOF” (Kymera Therapeutics, Inc., priority 2022, published 2026).
# Like-named read-outs stand apart in the source and are kept apart here.
# Assays:
# [1] = dog NOAEL vs predicted human AUC
# [2] = rat NOAEL vs predicted human AUC
smiles,measurement,setting,value
"Cn1c(=O)n([C@@H]2CCC(=O)NC2=O)c2cccc(C#CCOC3CCN(C[C@H]4CC[C@H](n5cc(NC(=O)c6cnn7ccc(N8C[C@H]9C[C@@H]8CO9)nc67)c(C(F)F)n5)CC4)CC3)c21 [Compound A, 5-((1R,4R)-2-oxa-5-azabicyclo[2.2.1]heptan-5-yl)-N-(3-(difluoromethyl)-1-((1r,4R)-4-((4-((3-(1-(2,6-dioxopiperidin-3-yl)-3-methyl-2-oxo-2,3-dihydro-1H-benzo[d]imidazol-4-yl)prop-2-yn-1-yl)oxy)piperidin-1-yl)methyl)cyclohexyl)-1H-pyrazol-4-yl)pyrazolo[1,5-a]pyrimidine-3-carboxamide]",exposure safety margin for the starting dose of 25 mg based on AUC at NOAEL,[1],159 fold
same,exposure safety margin for the starting dose of 25 mg based on AUC at NOAEL,[2],79 fold
